The subject of this assay is EGFR in NRCF. Briefly: EGFR-dependent DMR response to EGF in NRCF. The class given is cell-based, rat. The note with it: Gef 1 μmol/L, 30 min; EGF 1 nmol/L.

The results in this text go back to article PMC3968527, “Dynamic mass redistribution analysis of endogenous β-adrenergic receptor signaling in neonatal rat cardiac fibroblasts” (Pharmacology Research & Perspectives, 2014).

As to `COc1cc2ncnc(Nc3ccc(F)c(Cl)c3)c2cc1OCCCN1CCOCC1` [Gef, gefitinib], the “effect on EGF-dependent DMR response” value is recorded as “completely blocks”.
